Assay results published in PubChem BioAssay AID463 (The Scripps Research Institute Molecular Screening Center, 2006).
The entries are a selection whose mix differs from that of the whole data set. Some results for these compounds are left out of this collection, so the calls shown say nothing about other tests. Active and inactive are the calls of the source.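 How the source made its calls: active means inhibition above the mean inhibition of all tested compounds plus 3 SD (cut at about 28% in these data); inactive means the rest.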

Assay: Jurkat cell viability reduction – Jurkat E6.1, 60K MLSMR library, cytotoxicity control, primary screen (AID 463)
Conditions: Jurkat E6.1 viability, ATP luminescence, 48 h; at 4 µM; active compounds read high

SMILES | inhibition
O=C(OC1CN2CCC1CC2)C(CO)(c1ccccc1)c1ccccc1 (configuration not stated) | inactive: -2%
CN(C)c1cccc(C(=O)NCC2(N(C)C)CCCCC2)c1 | inactive: -0.1%
